Data set [1] deals with A549 non-small cell lung carcinoma xenograft. Briefly: A549 xenograft model. Conditions: 5 mg/kg i.p. every other day.
The next data set concerns the target HDAC2 (Homo sapiens, UniProt Q92769). In words: HDAC panel inhibition. The note with it: read-out: Calculated Inhibitory IC50, HDAC 2, unmasked thiol forms.

Sequences of proteins named here, by UniProt entry; tags and fusion partners are left off.
UniProt Q92769, whole entry: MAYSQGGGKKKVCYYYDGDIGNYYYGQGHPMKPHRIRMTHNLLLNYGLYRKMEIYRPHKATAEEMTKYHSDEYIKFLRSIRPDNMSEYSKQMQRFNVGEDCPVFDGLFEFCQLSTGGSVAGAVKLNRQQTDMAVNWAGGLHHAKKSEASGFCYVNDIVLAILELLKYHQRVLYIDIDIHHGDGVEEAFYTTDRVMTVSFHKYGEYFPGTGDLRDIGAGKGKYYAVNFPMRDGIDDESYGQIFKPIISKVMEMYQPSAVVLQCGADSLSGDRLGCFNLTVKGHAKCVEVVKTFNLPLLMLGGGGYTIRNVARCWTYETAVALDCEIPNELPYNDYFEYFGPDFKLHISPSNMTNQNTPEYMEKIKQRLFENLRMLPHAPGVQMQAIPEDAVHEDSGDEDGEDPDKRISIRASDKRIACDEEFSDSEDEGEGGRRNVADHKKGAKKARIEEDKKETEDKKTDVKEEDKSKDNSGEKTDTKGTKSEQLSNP

A word on the IC50: it is the concentration at which inhibition is half-maximal. In the case of Largazole thiol, in data set [1], the fatality result is recorded as “one fatality occurred” and the weight loss was ~ 2%. Also, the IC50 at HDAC2 was 10.5 nM.

Source of the values: publication PMC4368451 (Cancer chemotherapy and pharmacology, 2015).
